The numbers were not newly measured in patent publication US9050267B2 (Novartis AG, priority 2011, dated 2015), which cites them from elsewhere.

For the series the following is noted: cited from earlier work.

For the substance formoterol fumarate, the water solubility result is given as “about 1 mg/ml”.
